Here are results for 13 compounds from patent publication US9394263B2, “Substituted hetero-azepinones” (priority 2012, dated 2016).

Sequences of proteins named here, by UniProt entry; tags and fusion partners are left off. A line that says so, or that is headed by a name, gives the form on record, which may keep a tag or linker. Residues count along the entry.
UniProt P98170, other isoform, or with tags, fused parts or gaps, stated change not applied: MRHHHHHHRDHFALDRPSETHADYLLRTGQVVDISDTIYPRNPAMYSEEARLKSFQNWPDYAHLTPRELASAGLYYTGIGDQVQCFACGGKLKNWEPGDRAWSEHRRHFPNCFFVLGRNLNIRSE
UniProt P98170, 241-356 with tags or gaps limits assumed: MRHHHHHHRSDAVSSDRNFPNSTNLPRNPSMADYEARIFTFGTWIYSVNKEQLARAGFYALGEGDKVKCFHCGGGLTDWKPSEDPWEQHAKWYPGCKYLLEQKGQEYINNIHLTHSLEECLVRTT

Counter-ions that a name gives are not always drawn. Like-named read-outs stand apart in the source and are kept apart here. Some results are limits rather than exact numbers.

By IC50 is commonly meant the midpoint of a concentration-inhibition curve.

For one assay, the target named is BIR2 domain of XIAP (Homo sapiens (Human), UniProt P98170, C202A/C213G). The assay can be described thus: TR-FRET assay for BIR2: inhibition of binding of XIAP BIR2 domain to Peptide A (SMAC-derived peptide).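 Further: percent inhibition measured across a concentration series of each compound, from which the IC50 was derived.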 As to the method: TR-FRET Assay for BIR2 and BIR3
Percentage of inhibition at each concentration was determined to generate an IC50 value for each test compound.

The next assay has as its target BIR3 domain of XIAP (Homo sapiens (Human), UniProt P98170). The assay can be described thus: TR-FRET assay for BIR3: inhibition of binding of XIAP BIR3 domain to Peptide A (SMAC-derived peptide).

Compound `CN[C@@H](C)C(=O)N[C@@H]1C(=O)N(Cc2c(C)ccc3ccccc23)c2ccccc2OC12CCOCC2` [Example 1q] came in with an IC50 on BIR2 domain of XIAP of 0.634 µM.
In turn, `CN[C@@H](C)C(=O)N[C@H]1COc2ccccc2N(Cc2c(OC)ccc3cc(Br)ccc23)C1=O` [Example 29, (S)-N-[(S)-9-(6-Bromo-2-methoxy-naphthalen-1-ylmethyl)-8-oxo-6,7,8,9-tetrahydro-5-oxa-9-aza-benzocyclohepten-7-yl]-2-methylamino-propionamide trifluoroacetate] showed an IC50 at BIR2 domain of XIAP of 0.101 µM.
Consider `CN[C@@H](C)C(=O)N[C@H]1COc2ccccc2N(Cc2ccc(Br)c3ccccc23)C1=O` [Example 29a], for which the IC50 on BIR2 domain of XIAP was 0.676 µM.
`CN[C@@H](C)C(=O)N[C@H]1COc2ccccc2N(Cc2ccccc2OC)C1=O` [Example 29c] gave an IC50 at BIR2 domain of XIAP of 5.12 µM.
At BIR2 domain of XIAP, `COc1ccc2cc(Br)ccc2c1CN1C(=O)[C@@H](NC(=O)[C@@H](N)[C@@H](C)O)COc2cc(C)ccc21` [Example 37, (2S,3R)-2-Amino-N-[(S)-9-(7-bromo-3-methoxy-naphthalen-2-ylmethyl)-3-methyl-8-oxo-6,7,8,9-tetrahydro-5-oxa-9-aza-benzocyclohepten-7-yl]-3-hydroxy-butyramide trifluoracetate] showed an IC50 of 7.08 µM.
On the same count and under the same terms, the figure for `COc1ccc2cc(Br)ccc2c1CN1C(=O)[C@@H](NC(=O)[C@@H](N)[C@H](C)O)COc2cc(C)ccc21` [Example 38, (2S,3S)-2-Amino-N-[(S)-9-(7-bromo-3-methoxy-naphthalen-2-ylmethyl)-3-methyl-8-oxo-6,7,8,9-tetrahydro-5-oxa-9-azabenzocyclohepten-7-yl]-3-hydroxy-butyramide trifluoroacetate] is 0.077 µM; for `CN[C@@H](C)C(=O)N[C@H]1COc2ccccc2N(Cc2c(C)ccc3ccccc23)C1=O` [Example 44] it is 0.845 µM.
The compound `CN[C@@H](C)C(=O)N[C@H]1COc2ccccc2N(Cc2ccccc2Cl)C1=O` [Example 45] had an IC50 on BIR2 domain of XIAP of 5.61 µM.
Consider `CN[C@@H](C)C(=O)N[C@H]1COc2ccccc2N(Cc2ccc(Cl)cc2)C1=O` [Example 47, (S)-N-((S)-5-(4-Chlorobenzyl)-4-oxo-2,3,4,5-tetrahydrobenzo[b][1,4]oxazepin-3-yl)-2-(methylamino)propanamide], for which the IC50 on BIR2 domain of XIAP worked out at 6.03 µM.
As for `[2H]C([2H])([2H])C([2H])([2H])N[C@@H](C)C(=O)N[C@H]1COc2ccccc2N(Cc2nn(-c3ccccc3C#N)c3ccccc23)C1=O` [Example 70, (S)-N-((S)-5-((1-(2-Cyanophenyl)-1H-indazol-3-yl)methyl)-4-oxo-2,3,4,5-tetrahydrobenzo[b][1,4]oxazepin-3-yl)-2-(ethyl-d5-amino)propanamide], the values for the IC50 at BIR2 domain of XIAP and on BIR3 domain of XIAP were 0.183 µM and greater than 54.8 µM, respectively.
Regarding `CN[C@@H](C)C(=O)N[C@@H]1C(=O)N(Cc2noc3ccccc23)c2ccccc2OC12CCOCC2` [Example 84, (S)-N-((S)-5-(Benzo[d]isoxazol-3-ylmethyl)-4-oxo-2′,3′,4,5,5′,6′-hexahydro-3H-spiro[benzo[b][1,4]oxazepine-2,4′-pyran]-3-yl)-2-(methylamino)propanamide hydrochloride], the IC50 at BIR2 domain of XIAP worked out at 0.569 µM.
At BIR2 domain of XIAP, `CN[C@@H](C)C(=O)N[C@@H]1C(=O)N(Cc2c(OC(F)F)ccc3ccccc23)c2ccccc2OC12CCOCC2` [Example 85, (S)-N-((S)-5-((2-(Difluoromethoxy)naphthalen-1-yl)methyl)-4-oxo-2′,3′,4,5,5′,6′-hexahydro-3H-spiro[benzo[b][1,4]oxazepine-2,4′-pyran]-3-yl)-2-(methylamino)propanamide hydrochloride] came in with an IC50 of 0.41 µM.
In the case of `CN[C@@H](C)C(=O)N[C@H]1C(=O)N(Cc2c(OC(F)F)ccc3ccccc23)c2ccccc2OC12CCOCC2` [Example 86, (S)-N-((R)-5-((2-(Difluoromethoxy)naphthalen-1-yl)methyl)-4-oxo-2′,3′,4,5,5′,6′-hexahydro-3H-spiro[benzo[b][1,4]oxazepine-2,4′-pyran]-3-yl)-2-(methylamino)propanamide hydrochloride], the IC50 at BIR2 domain of XIAP (read-out: BIR2 IC50) stood at 6.41 µM.
